From PubChem BioAssay (Tox21)
This is a selection; strong and weak results do not stand in their true shares. Records with an inconclusive call do not appear. Where a call stands in place of a potency, no number is given. Activity calls are given as the source filed them. Calls follow the shape of the full dose curve.
Potency is read from the fitted curve at half-maximal effect.

Amino acid sequences for entries named in this document (tags omitted).
UniProt P28223, whole entry, looked up: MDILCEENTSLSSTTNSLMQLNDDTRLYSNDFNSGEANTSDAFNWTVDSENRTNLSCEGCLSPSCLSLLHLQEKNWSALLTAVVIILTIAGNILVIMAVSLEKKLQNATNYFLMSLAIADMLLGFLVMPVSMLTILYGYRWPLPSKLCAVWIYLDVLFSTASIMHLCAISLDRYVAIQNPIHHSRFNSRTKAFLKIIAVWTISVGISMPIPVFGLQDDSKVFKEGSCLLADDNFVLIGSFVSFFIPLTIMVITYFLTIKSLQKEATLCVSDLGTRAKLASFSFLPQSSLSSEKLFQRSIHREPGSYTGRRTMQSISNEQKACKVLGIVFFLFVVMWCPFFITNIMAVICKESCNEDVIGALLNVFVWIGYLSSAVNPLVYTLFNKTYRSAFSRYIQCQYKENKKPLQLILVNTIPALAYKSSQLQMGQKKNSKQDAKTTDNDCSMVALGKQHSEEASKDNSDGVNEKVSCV

These compounds were tested against 5-hydroxytryptamine receptor 2A (Homo sapiens) (UniProt P28223) (assay: 5-hydroxytryptamine receptor 2A (HTR2A) small molecule agonists, cell-based qHTS assay (AID 1963587; also: nearly all actives have a fitted effect of over 30% in size)). Conditions: HTR2A-CHO cells, calcium flux fluorescence, agonist mode; series mostly up to 76.8 µM.
Excerpt: National Center for Advancing Translational Sciences [NCATS]
Division of Preclinical Innovation [DPI]
U.S. Environmental Protection Agency [EPA]
National Institutes of Environmental Health Sciences [NIEHS]
National Toxicology Program [NTP]
U.S. Food and Drug Administration [FDA]
The HTR2A receptor is a subtype of the 5-HT2 receptor that belongs to the serotonin receptor family and is a G protein-coupled receptor (GPCR). The HTR2A-CHO cell line stably expressing human 5-hydroxytryptamine receptor 2A (HTR2A) can be used for screening agonists of interactions between 5-HT2 and its ligands. The HTR2A-CHO calcium flux assay is a homogeneous fluorescence-based assay for detecting the intracellular calcium level using FDSS kinetic plate reader system.
HTR2A-CHO cells were dispensed at 2000 cells/3uL/well in 1536-well black-clear bottom plates using a Multidrop Dispenser. After the assay plates were incubated at a 37 C/5% CO2 incubator for 18 h, 3 uL of Dye Loading Buffer was transferred to the assay plate by a Flying Reagent Dispenser. The assay plates were incubated at 37 C for 1h. For agonist mode, 23 nL of compounds dissolved in DMSO, positive controls or DMSO only was transferred to the assay plate by a pin tool. The fluorescence intensity in the plates was measured using FDSS 7000EX kinetic plate reader for 2 min at 1 sec intervals.
CCC(C)(OOC(C)(C)C)OOC(C)(C)C was tested, and the activation was inactive: 11% [at 15.9 µM]. For CC(C)OP(=S)(OC(C)C)SCCNS(=O)(=O)c1ccccc1, the Potency was “inactive”. In the case of O=[N+]([O-])c1ccc(S(=O)(=O)O)c([N+](=O)[O-])c1, the Potency was “inactive”. In the case of CCCCCCCCCCCCCC[P+](CCCCCC)(CCCCCC)CCCCCC, the Potency was “inactive”. With CCCCOP(OCCCC)OCCCC the Potency was “inactive”. In the case of CCOP(=S)(CC)Sc1ccccc1 (stereo not drawn), the Potency was “inactive”. In the case of CC(C)CCCCCCCOP(OCCCCCCCC(C)C)Oc1ccccc1, the Potency was “inactive”. In the case of O=[p+]1oc2ccccc2c2ccccc21 (stereo not drawn), the Potency was “inactive”. With O=[As]c1ccccc1 (stereo not drawn) the Potency was active: 43.6 µM. In the case of Cc1cc([N+](=O)[O-])cc([N+](=O)[O-])c1O, the Potency was “inactive”. With COP(=S)(Cl)OC the Potency was “inactive”. With CCOC(=O)Cl the Potency was “inactive”. For N#CSc1ccc([N+](=O)[O-])cc1[N+](=O)[O-], the Potency was “inactive”. In the case of CCCCC(CC)CO[P+](=O)OCC(CC)CCCC (stereo not drawn), the Potency was “inactive”. In the case of COC(=O)Cl, the Potency was “inactive”. With CN(C(=O)Cc1ccccc1)[C@H]1CC[C@@]2(CCCO2)C[C@@H]1N1CCCC1 the Potency was “inactive”. For CN(C(=O)Cc1ccc(Cl)c(Cl)c1)[C@H]1CC[C@@]2(CCCO2)C[C@@H]1N1CCCC1, the Potency was “inactive”. In the case of O=P(Cl)(Oc1ccccc1)Oc1ccccc1, the Potency was “inactive”. For NC(=O)Nc1ccc([As](=O)(O)O)cc1, the Potency was “inactive”. With CN(N=O)C(=N)N[N+](=O)[O-] the Potency was “inactive”. In the case of CCNC(C)Cc1ccc2c(c1)OCO2 (stereo not drawn), the Potency was active: 5.9 µM. With CCCCO[P+](=O)OCCCC the Potency was “inactive”. For O=[P+](Oc1ccccc1)Oc1ccccc1, the Potency was “inactive”. O=C(Cl)Oc1ccccc1 was tested, and the Potency was “inactive”. In the case of O=C(Cl)OCCOC(=O)Cl, the Potency was “inactive”. ClP(Cl)c1ccccc1 was tested, and the Potency was “inactive”. In the case of O=P(Cl)(Cl)c1ccccc1, the Potency was “inactive”. In the case of CN(C(=O)Cc1cccc2occc12)[C@H]1CC[C@@]2(CCCO2)C[C@@H]1N1CCCC1, the Potency was “inactive”.
